Test results: patent US5523308A, “Peptidyl heterocycles useful in the treatment of thrombin related disorders” (priority 1995, dated 1996)
Like-named read-outs stand apart in the source and are kept apart here.

Chains of the proteins cited; added tags and fusions are not shown. Residues count along the entry.
UniProt P00760, 24-246 limits assumed: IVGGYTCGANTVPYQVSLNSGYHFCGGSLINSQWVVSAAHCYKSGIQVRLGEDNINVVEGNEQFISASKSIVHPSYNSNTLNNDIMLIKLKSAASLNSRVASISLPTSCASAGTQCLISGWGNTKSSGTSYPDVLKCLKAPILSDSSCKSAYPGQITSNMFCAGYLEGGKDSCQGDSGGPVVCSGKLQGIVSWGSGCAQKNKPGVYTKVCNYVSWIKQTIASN

Tests used:
Bovine type 1 trypsin = Bovine type 1 trypsin (Bos taurus, UniProt P00760); assay: Trypsin-catalyzed hydrolysis of chromogenic substrate Spectrozyme TRY (in vitro enzyme assay); assay type: biochemical; conditions: read-out: Trp IC50, 3.2 U/ml trypsin, 0.1-0.3 mM Spectrozyme TRY
human alpha-thrombin = human alpha-thrombin (Homo sapiens, UniProt P00734); assay: Thrombin-catalyzed hydrolysis of chromogenic substrate Spectozyme TH (in vitro enzyme assay); assay type: biochemical; conditions: read-out: Thr IC50, 1 nM thrombin, 50 μM Spectozyme TH, 37° C., pH 7.4
[1] = Ex vivo i.v. assay for duration of action: time to half plasma elimination from thrombin inhibition in rat plasma; conditions: male Long Evans rats, i.v. via femoral vein, from slope of Vo vs. time; tested form: TFA

Row | SMILES | IC50 (Bovine type 1 trypsin; tested form: TFA) [µM] | IC50 (human alpha-thrombin; tested form: TFA) [µM] | also measured
1 | N=C(N)NCCC[C@H](NC=O)C(=O)c1nc2ccccc2s1 | 4.38 |  | 
2 | CCOC(=O)c1csc(C(=O)[C@H](CCCNC(=N)N)NS(=O)(=O)c2cccc3c(N(C)C)cccc23)n1 |  |  | IC50 (human alpha-thrombin): 42 µM; IC50 (Bovine type 1 trypsin): 6.34 µM
3 | CN[C@H](Cc1ccccc1)C(=O)N[C@H](C(=O)N[C@@H](CCCNC(=N)N)C(=O)c1nc2ccccc2s1)C(C)C | 0.002 | 0.2 | 
4 | CCOC(=O)c1csc(C(=O)[C@@H](CCCNC(=N)N)NC(=O)CNS(=O)(=O)c2ccc3ccccc3c2)n1 | 0.012 | 4 | 
5 | CN(C)c1cccc2c(S(=O)(=O)N[C@@H](CCCNC(=N)N)C(=O)N3CCCCC3C(=O)c3nccs3)cccc12 (stereo partly drawn) | 50 | 26 | 
6 | CN(C)c1cccc2c(S(=O)(=O)N[C@@H](CCCNC(=N)N)C(=O)N3CCCCC3CCC(=O)c3nccs3)cccc12 (single isomer, unassigned) | 19 | 3.5 | 
7 | CN[C@H](Cc1ccccc1)C(=O)N1CCC[C@H]1C(=O)N[C@@H](CCCOC)C(=O)c1nc2ccccc2s1 | 7.44 | 45.5 | 
8 | CN[C@H](Cc1ccccc1)C(=O)N1CCC[C@H]1C(=O)N[C@@H](CCCNC(=N)N)C(=O)c1nc2ccccc2n1C |  |  | IC50 (human alpha-thrombin; tested form: oxalate): 0.111 µM; IC50 (Bovine type 1 trypsin; tested form: oxalate): 1.2 µM
9 | N=C(N)NCCCC(NC(=O)[C@@H]1CCCN1C(=O)CC(c1ccccc1)c1ccccc1)C(=O)c1nc2ccccc2s1 (stereo partly drawn) |  |  | t1/2 (time to half plasma elimination) [1]: 6 min
10 | CN(C)c1cccc2c(S(=O)(=O)N[C@@H](CCCNC(=N)N)C(=O)N3CCCCC3CCCC(=O)c3nccs3)cccc12 (stereo partly drawn) | 7.74 | 40.1 | 
11 | CN[C@H](Cc1ccccc1)C(=O)N1CCC[C@H]1C(=O)N[C@@H](CCCNC(=N)N)C(=O)c1nc2ccccc2o1 | 0.28 |  | 
12 | CN[C@H](Cc1ccccc1)C(=O)N1CCC[C@H]1C(=O)N[C@@H](CCCNC(=N)N)C(=O)c1cc2ccccc2s1 | 6.88 | 12.9 | 
